biological target: Metabotropic glutamate receptor 5 (Rattus norvegicus, UniProt P31424); assay: Negative allosteric modulator activity at rat mGlu5 expressed in HEK293A cells assessed as reduction in glutamate-induced calcium mobilization; format: functional, cell-based, HEK293-A

Amino acid sequences for entries named in this document (tags omitted).
UniProt P31424, whole entry: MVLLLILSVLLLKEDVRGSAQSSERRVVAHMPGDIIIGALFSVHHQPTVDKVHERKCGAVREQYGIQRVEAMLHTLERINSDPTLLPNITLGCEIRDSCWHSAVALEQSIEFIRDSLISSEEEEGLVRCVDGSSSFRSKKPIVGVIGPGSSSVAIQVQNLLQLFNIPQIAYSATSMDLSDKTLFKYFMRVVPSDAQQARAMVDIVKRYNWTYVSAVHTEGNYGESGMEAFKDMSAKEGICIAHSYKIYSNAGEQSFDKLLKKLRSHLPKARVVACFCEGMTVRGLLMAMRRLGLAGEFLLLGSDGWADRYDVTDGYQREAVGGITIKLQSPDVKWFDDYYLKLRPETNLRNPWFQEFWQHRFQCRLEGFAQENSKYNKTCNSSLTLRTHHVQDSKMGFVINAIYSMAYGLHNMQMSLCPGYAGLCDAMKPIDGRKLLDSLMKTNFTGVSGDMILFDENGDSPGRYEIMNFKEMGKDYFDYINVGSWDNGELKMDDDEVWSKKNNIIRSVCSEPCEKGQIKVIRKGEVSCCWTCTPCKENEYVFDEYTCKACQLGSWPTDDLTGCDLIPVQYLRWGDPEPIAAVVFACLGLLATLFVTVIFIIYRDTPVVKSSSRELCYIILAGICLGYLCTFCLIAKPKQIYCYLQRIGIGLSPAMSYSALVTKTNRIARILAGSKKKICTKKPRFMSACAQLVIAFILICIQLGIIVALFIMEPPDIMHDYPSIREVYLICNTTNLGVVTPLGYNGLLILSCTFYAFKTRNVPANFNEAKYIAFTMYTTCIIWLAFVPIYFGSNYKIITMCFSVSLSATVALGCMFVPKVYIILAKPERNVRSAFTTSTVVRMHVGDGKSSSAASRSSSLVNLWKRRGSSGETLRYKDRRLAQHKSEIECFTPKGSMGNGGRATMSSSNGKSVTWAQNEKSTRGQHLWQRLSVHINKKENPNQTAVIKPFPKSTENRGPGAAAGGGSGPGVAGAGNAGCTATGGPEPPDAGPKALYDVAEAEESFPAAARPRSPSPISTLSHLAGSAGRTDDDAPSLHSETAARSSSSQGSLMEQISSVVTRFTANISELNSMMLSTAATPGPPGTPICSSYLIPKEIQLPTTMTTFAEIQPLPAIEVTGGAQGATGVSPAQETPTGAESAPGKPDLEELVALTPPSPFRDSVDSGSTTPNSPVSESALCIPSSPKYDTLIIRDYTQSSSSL

| SMILES | IC50 |
| --- | --- |
| COc1cccc(C(=O)Nc2cncc(Oc3cncc(F)c3)n2)c1 | 4.4 µM |
| O=C(Nc1cncc(Oc2cncc(F)c2)n1)c1ccsc1 | 3.45 µM |
| Cc1nc(C(=O)Nc2cncc(Oc3cncc(F)c3)n2)cs1 | 4.64 µM |

The remaining molecules from weak to strong by IC50, led by results:

| IC50 | SMILES |
| --- | --- |
| 8.65 µM | O=C(Nc1cncc(Oc2cncc(F)c2)n1)c1ccccc1 |
| 6.6 µM | Cc1cc(C)cc(C(=O)Nc2cncc(Oc3cncc(F)c3)n2)c1 |
| 4.11 µM | COc1cccc(C(=O)Nc2cncc(Oc3cncnc3)n2)c1 |
